Test system: aggregated Htt
Assay: Immunohistochemistry with anti-Htt aggregate Ab EM48 in R6/2 mouse brain
Assay type: in vivo
Details: R6/2 mice, oral CQ 30 mg/kg/day, 11-week old, striatum and motor cortex
Method: A colony of transgenic mice strain R6/2 that is heterozygous for htt exon1 (containing 145 CAG repeats) was maintained, with founders originating and available from The Jackson Laboratory (Bar Harbor, Me., USA). Male transgenic R6/2 mice were bred with background strain (B6CBAFI/J) females. Genotyping was done according to Hockly et al, Brain Res Bull 61, 469-479, 2003. CQ in water was orally administered to mice at 30 mg/kg/day starting at 3 weeks of age and continued until the mice were deceased or sacrificed for tissues. Littermate R6/2 mice were gavaged with water vehicle alone. At the end of CQ treatment mice were anesthetized and transcardially perfused with PBS followed by 4% v/v paraformaldehyde. Blood glucose levels were determined after at least 8 hrs of fasting in 11-week old mice (n=6 for wild-type, n=4 for vehicle-treated R6/2, n=6 for CQ-treated R6/2 littermates) using a 2300 STAT Plus glucose analyzer (YSI, Yellowsonte, Ohio, USA). Fasting blood insulin levels in animals fasted for 8 hrs were measured using an Ultra Sensitive Rat Insulin ELISA Kit (Crystal Chem, Inc., Downers Grove, Ill., USA) according to manufacturer's instructions. […]
It was then determined if CQ would also reduce mutant Htt accumulation in vivo using the HD transgenic mouse model R6/2.

Oc1c(I)cc(Cl)c2cccnc12 [CQ, 5-chloro-7-iodo-8-hydroxy-quinoline]
accumulation of aggregated Htt by EM48 immunohistochemistry: inhibited the accumulation of aggregated Htt in both the striatum and motor cortex
